{"source": "patent US20210275640A1", "about": "“METHODS FOR ENHANCING PERMEABILITY TO BLOOD-BRAIN BARRIER, AND USES THEREOF” (ACADEMIA SINICA, priority 2014, published 2021)", "conditions": "40× higher VEGF dose", "data": [{"substance": "vascular endothelial growth factor [VEGF]", "values": [{"measurement": "Brain concentration ratio, 200 vs. 5 ng/kg dose", "result": 4, "unit": "×"}]}]}
